# Source: patent US6517856B1, “Insecticide resistance assay” (priority 1998, dated 2003)
# System: H. virescens
# Assay: Feeding disruption assay for resistance to a carbamate insecticide
# Assay type: in vivo, Heliothis virescens
# Conditions: 1000 ppm in test diet
compound,measurement,value
CS/C(C)=N\OC(=O)N(C)SN(C)C(=O)O/N=C(\C)SC,discrimination of resistant (Macon Ridge) and susceptible (Wake) strains by fecal pellet production,can be distinguished within hours
